Assay results as given in US12161722B2, “Bifunctional heterocyclic compound having BTK degradation function via ubiquitin proteasome pathway, and use thereof” (KOREA RESEARCH INSTITUTE OF CHEMICAL TECHNOLOGY, priority 2021, dated 2024).

Sequences of proteins named here, by UniProt entry; tags and fusion partners are left off. A change or cut given only in a name is not applied to a line headed by its entry.
UniProt Q06187, whole entry: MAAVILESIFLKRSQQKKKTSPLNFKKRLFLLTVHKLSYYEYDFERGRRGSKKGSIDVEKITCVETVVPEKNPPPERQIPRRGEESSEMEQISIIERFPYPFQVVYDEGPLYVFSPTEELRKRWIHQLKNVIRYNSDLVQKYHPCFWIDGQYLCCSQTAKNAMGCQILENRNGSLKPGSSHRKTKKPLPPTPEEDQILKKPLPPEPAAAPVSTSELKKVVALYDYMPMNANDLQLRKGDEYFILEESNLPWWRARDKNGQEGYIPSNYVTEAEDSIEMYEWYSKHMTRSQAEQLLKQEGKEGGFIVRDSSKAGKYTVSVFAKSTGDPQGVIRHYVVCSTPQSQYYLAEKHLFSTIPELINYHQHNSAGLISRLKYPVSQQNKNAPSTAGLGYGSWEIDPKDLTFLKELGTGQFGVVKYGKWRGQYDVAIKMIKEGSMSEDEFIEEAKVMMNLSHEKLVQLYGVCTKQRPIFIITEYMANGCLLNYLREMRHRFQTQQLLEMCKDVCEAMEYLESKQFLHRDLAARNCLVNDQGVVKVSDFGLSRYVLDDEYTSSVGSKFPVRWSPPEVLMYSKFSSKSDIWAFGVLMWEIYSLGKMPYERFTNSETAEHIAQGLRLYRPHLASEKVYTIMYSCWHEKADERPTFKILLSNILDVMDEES
UniProt Q06187, whole entry C481S: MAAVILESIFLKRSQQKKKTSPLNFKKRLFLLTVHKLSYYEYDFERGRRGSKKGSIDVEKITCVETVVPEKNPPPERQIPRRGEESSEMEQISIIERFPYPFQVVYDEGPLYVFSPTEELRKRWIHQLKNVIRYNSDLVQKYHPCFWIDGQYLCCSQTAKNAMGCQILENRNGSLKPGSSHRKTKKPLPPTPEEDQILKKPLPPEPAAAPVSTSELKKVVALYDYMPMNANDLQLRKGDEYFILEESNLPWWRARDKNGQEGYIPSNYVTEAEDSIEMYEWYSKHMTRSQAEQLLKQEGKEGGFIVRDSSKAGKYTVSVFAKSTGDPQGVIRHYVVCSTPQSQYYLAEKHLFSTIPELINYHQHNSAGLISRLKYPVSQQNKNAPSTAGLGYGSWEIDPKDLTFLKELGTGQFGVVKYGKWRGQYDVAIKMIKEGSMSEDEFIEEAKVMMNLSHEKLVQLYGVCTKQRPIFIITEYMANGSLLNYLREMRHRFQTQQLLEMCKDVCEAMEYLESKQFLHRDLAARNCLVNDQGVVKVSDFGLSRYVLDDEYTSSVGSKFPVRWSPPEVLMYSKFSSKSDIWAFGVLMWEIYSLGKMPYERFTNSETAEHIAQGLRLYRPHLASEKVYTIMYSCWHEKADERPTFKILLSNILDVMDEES

How the values were obtained:
[1] = target: WT BTK protein (Homo sapiens, UniProt Q06187); assay: BTK protein degradation assay (Western blotting), WT BTK; settings: read-out: WT BTK Degradation (DC50 %), concentration range accounting for 50% degradation of WT BTK protein, TMD-8 or RAMOS cells, 24 hours
Method: (§1) TMD-8, RAMOS, or 293T BTK MUT (C481S) cells were treated with the synthesized compounds and measured for intracellular BTK protein levels by Western blotting. The protocol of the experiment using TMD-8 cells is as follows.
TMD-8 cells were resuspended in an RPMI1640 medium (Hyclone, SH30027.01, 10% FBS (Hyclone, SV30207.02), 1% penicillin-streptomycin (Welgene, LS 202-02) and the cell suspension was seeded at a density of 1×10^6 cells/mL in an amount of 1 mL per well into 12-well plates.
(§2) The 12-well plates were treated as follows. A 10 mM stock was 1/10 diluted in series with DMSO ([…]) to form final concentrations of 10, 1, 0.1, 0.01, 0.001, and 0.0001 mM. The compounds with such concentrations were applied to cells, followed by harvesting the cells 24 hours later. For a negative control, a 1/10 dilution of DMSO in the medium (3 mL DMSO+27 mL medium) was used.
The 1-mL cell culture in each well was passed many times through a pipette and then transferred into a 1.5-mL microtube before centrifugation (500 g, 5 min, 4° C.). The supernatant was discarded and the cell pellet was washed with PBS. After centrifugation (500 g, 5 min, 4° C.) again, the supernatant was discarded and the cell pellet was taken.
A lysis buffer was prepared as follows. RIPA buffer (Biosesang, RC2038-050-00)+0.5 mM PMSF (SIGMA, P7626)+1×Protease/Phosphatase Inhibitor (Cell signaling, 5872S) was added in an amount […] per well and left for 30 minutes on ice (vortexing at 0 and 30 minutes) before sonication (5 cycles of pulse for 10 seconds and rest for 30 seconds, 70% amplification). The supernatant obtained by centrifugation (15000 g, 15 min, 4° C.) was transferred into a new microtube. […] After being cooled for 10 minutes, the 96-well plates were measured for absorbance at 562 nm on the BioTek, SYNERGY H1 microplate reader. Samples were prepared by protein quantification based on the absorbance measurements and then boiled at 70° C. for 10 minutes. […]

[2] = target: C481S BTK protein (Homo sapiens, UniProt Q06187, C481S); assay: BTK protein degradation assay (Western blotting), C481S BTK; settings: read-out: C481S BTK Degradation (DC50 %), concentration range accounting for 50% degradation of C481S BTK protein, 293T BTK MUT (C481S) cells
Method: as §1, §2
The 1-mL cell culture in each well was passed many times through a pipette and then transferred into a 1.5-mL microtube before centrifugation (500 g, 5 min, 4° C.). The supernatant was discarded and the cell pellet was washed with PBS. […]
A lysis buffer was prepared as follows. […] After being cooled for 10 minutes, the 96-well plates were measured for absorbance at 562 nm on the BioTek, SYNERGY H1 microplate reader. Samples were prepared by protein quantification based on the absorbance measurements and then boiled at 70° C. for 10 minutes. […]
According to the concentration ranges of compounds accounting for 50% degradation of WT BTK protein and C481S BTK protein, the activities are expressed as +++(0.0001-0.01 μM), ++(0.01-1 μM), +(1-10 μM), −(>10 μM), and NT (not tested). […]

DC50 [1]	DC50 [2]	Compound
0.1 to 10 nM		Cc1cccc(C)c1Nc1nn(C)c2nc(Nc3ccc4c(c3)CN(C(=O)C3(F)CCN(C(=O)c5ccc6c(c5)CN(C5CCC(=O)NC5=O)C6=O)CC3)CC4)ncc12 (stereo not shown)
10 to 1000 nM	1000 to 10000 nM	Nc1ncnc2c1c(-c1ccc(Oc3ccccc3)cc1)nn2C1CCN(CCOCCOCC(=O)Nc2ccc3c(c2)C(=O)N(C2CCC(=O)NC2=O)C3=O)CC1 (stereo not shown)

Compound	DC50 [1]	DC50 [2]
Cc1cccc(C)c1Nc1nn(C)c2nc(Nc3ccc(C4CCN(C(=O)c5ccc6c(c5)CN(C5CCC(=O)NC5=O)C6=O)CC4)cc3)ncc12 (stereo not shown)	0.1 to 10 nM	
